According to patent publication US20240226306A1, “TREM-2/DAP-12 INHIBITORS FOR TREATING LUNG DISEASE AND INJURY AND COMBINATIONS THEREOF” (published 2024):

Legend:
[1] = Solubility of peptides in water and formulation vehicles
TREM-1 = conditions: pigs and primates; Derive et al. 2013, 2014; cited from earlier work

With `CC[C@H](C)[C@H](N)C(=O)N[C@@H](Cc1ccccc1)C(=O)N[C@@H](CC(C)C)C(=O)N[C@H](C(=O)N[C@@H](CCCCN)C(=O)N[C@H](C(=O)N[C@@H](CC(C)C)C(=O)N[C@@H](C)C(=O)N[C@@H](C)C(=O)O)[C@@H](C)CC)[C@@H](C)CC` the “solubility in SBECD-based formulations (aqueous solution of Dexolve)” value (“solubility in SBECD-based formulations” below) [1] was “not soluble”, the “solubility in an aqueous solution of propylene glycol, ethanol and Tween-80” value [1] was “dissolved” and the solubility in water [1] was “water-insoluble”.

For LQEEDAGEYGCM, the “endotoxin-associated clinical and biological alterations” value (TREM-1) is listed as “mitigates endotoxin-associated clinical and biological alterations” and the side effects (TREM-1) is listed as “no obvious side effects”.

With `CC(C)C[C@H](NC(=O)[C@H](Cc1ccccc1)NC(=O)CN)C(=O)N[C@@H](CO)C(=O)N[C@@H](CCCCN)C(=O)N[C@@H](CO)C(=O)N[C@@H](CC(C)C)C(=O)N[C@H](C(=O)N[C@@H](Cc1ccccc1)C(=O)O)C(C)C` the “solubility in SBECD-based formulations” value [1] was “dissolved”, the “solubility in an aqueous solution of propylene glycol, ethanol and Tween-80” value [1] was “dissolved” and the solubility in water [1] was “water-insoluble”.

With `CC[C@H](C)[C@H](NC(=O)[C@H](CCCCN)NC(=O)[C@@H](NC(=O)[C@H](CC(C)C)NC(=O)[C@H](Cc1ccccc1)NC(=O)[C@@H](NC(=O)[C@H](Cc1ccccc1)NC(=O)[C@@H](NC(=O)[C@H](CC(C)C)NC(=O)[C@H](CO)NC(=O)[C@H](CCCCN)NC(=O)[C@H](CO)NC(=O)[C@H](CC(C)C)NC(=O)[C@H](Cc1ccccc1)NC(=O)CN)C(C)C)[C@@H](C)CC)[C@@H](C)CC)C(=O)N[C@@H](CC(C)C)C(=O)N[C@@H](C)C(=O)N[C@@H](C)C(=O)O` the “solubility in SBECD-based formulations” value [1] was “dissolved” and the solubility in water [1] was “water-insoluble”.
